Assay results from PMC5728538.

The chains behind the UniProt entries cited, without tags or fusion partners. Where a name states a change or a piece, a line headed by the entry shows the natural chain unless it says otherwise.
UniProt Q93009, whole entry: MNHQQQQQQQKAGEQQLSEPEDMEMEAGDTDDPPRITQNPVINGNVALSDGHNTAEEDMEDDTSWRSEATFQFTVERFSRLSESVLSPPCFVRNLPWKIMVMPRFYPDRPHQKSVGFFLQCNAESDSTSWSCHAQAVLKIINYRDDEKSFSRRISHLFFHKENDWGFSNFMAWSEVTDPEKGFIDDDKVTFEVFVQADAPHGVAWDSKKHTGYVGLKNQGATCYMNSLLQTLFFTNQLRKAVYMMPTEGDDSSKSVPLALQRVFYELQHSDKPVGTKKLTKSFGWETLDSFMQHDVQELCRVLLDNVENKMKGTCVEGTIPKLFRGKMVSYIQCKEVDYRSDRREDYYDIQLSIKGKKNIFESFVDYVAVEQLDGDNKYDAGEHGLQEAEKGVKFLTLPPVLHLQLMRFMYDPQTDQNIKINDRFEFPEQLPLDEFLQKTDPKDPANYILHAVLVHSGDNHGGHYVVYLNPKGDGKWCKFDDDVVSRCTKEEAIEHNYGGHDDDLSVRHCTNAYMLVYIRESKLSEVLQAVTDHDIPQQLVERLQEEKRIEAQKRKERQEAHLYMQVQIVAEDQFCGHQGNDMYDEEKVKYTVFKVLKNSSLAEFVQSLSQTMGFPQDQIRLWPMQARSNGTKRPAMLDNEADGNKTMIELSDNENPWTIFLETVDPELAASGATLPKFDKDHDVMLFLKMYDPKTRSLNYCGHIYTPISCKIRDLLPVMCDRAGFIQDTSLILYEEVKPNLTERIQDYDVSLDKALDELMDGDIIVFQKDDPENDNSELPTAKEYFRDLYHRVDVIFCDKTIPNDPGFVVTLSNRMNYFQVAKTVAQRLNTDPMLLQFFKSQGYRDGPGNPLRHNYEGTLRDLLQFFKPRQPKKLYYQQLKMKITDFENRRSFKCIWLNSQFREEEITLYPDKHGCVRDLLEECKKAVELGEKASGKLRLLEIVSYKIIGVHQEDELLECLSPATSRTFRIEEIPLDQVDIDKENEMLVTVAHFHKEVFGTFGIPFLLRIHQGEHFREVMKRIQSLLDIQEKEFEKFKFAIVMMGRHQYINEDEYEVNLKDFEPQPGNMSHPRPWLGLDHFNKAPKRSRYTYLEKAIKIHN

How the values were obtained:
USP7 = USP7 (Homo sapiens, UniProt Q93009); assay: Ub-VME based USP7 activity assay, Jurkat cells; conditions: 30 μM
USP7 core WT = USP7 core WT (Homo sapiens, UniProt Q93009); assay: LC-MS and LC-MS/MS adduct analysis, USP7 core WT; conditions: S3 Fig

- inhibition of cellular USP7 activity (USP7-Ub-VME complex formation) (USP7): inhibited nearly all of the activity
SMILES: CC(=O)c1cc([N+](=O)[O-])c(Sc2cccc(Cl)c2Cl)s1
- adduct formation on USP7 core (WT vs C223A) (USP7 core WT): selectively formed adduct on the active site cysteine
